Reference: patent US4618622A, “Sulfonates of hydroxycoumarins” (priority 1982, dated 1986)
Where two headings read alike, the source gives them in different places.

Amino acid sequences for entries named in this document (tags omitted).
UniProt P21396, whole entry: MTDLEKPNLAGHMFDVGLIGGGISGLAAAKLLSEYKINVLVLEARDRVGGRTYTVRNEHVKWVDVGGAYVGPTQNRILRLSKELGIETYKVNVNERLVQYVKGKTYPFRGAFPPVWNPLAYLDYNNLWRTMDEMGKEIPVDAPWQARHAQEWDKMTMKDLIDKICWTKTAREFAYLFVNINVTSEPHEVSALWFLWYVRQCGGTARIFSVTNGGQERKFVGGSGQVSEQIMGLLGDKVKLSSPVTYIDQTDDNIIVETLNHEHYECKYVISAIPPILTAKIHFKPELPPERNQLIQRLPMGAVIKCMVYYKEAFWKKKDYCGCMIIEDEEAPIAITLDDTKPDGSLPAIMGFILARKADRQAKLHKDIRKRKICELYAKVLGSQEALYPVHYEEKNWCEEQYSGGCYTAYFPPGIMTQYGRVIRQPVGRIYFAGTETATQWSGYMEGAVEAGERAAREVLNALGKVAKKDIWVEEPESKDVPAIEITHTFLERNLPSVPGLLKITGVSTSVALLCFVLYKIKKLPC

Biological target: Monoaminoxidase A (Rattus norvegicus, UniProt P21396)
Assay: biochemical
Details: read-out: Monoaminoxidase inhibition IC50
[1] = monoaminoxidase A, rat brain homogenate, 14C-tryptamine 0.4 μmol/liter, 37° C., 20 minutes

| IC50 [1] [nM] | Compound | IC50 [nM] |
| --- | --- | --- |
| 110 | 7-Hydroxy-3-carbomethoxymethyl-4-methylcoumarin benzenesulfonate [Example 47] | – |
| – | Cc1c(C)c2ccc(OS(C)(=O)=O)cc2oc1=O [Example 2, 7-Hydroxy-3,4-dimethylcoumarin methanesulfonate] | 110 |
| 8.4 | CCS(=O)(=O)Oc1ccc2c(C)c(C)c(=O)oc2c1 [Example 39, 7-Hydroxy-3,4-dimethylcoumarin ethanesulfonate] | – |
